{"sequences": {"note": "Amino acid sequences for entries named in this document (tags omitted).", "UniProt P06730, whole entry": "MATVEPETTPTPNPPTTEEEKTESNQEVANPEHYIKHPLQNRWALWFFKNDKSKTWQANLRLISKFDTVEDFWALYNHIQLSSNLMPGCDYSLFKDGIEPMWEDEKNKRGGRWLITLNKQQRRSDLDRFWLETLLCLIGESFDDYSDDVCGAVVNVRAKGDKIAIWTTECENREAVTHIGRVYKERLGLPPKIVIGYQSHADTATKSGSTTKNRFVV"}, "source": "patent US10676499B2", "about": "“3′ end caps, 5′ end caps and combinations thereof for therapeutic RNA” (NOVARTIS AG, priority 2014, dated 2020)", "target": "eIF4E (Homo sapiens (Human), UniProt P06730)", "assay": "TR-FRET assay for competitive binding of cap analogs to eIF4E", "details": "N^7-alkylated GMP derivatives; competition with capped 7mGDP mRNA-biotin; single measurement unless footnoted as average", "data": [{"smiles": "Nc1nc([O-])c2c(n1)n([C@@H]1O[C@H](COP(=O)(O)O)[C@@H](O)[C@H]1O)c[n+]2CC(=O)Nc1cccc(Cl)c1", "values": [{"measurement": "AC50", "value": "> 100", "unit": "µM"}]}, {"smiles": "Nc1nc([O-])c2c(n1)n([C@@H]1O[C@H](COP(=O)(O)O)[C@@H](O)[C@H]1O)c[n+]2C/C=C/c1ccccc1", "values": [{"measurement": "AC50", "value": "> 100", "unit": "µM"}]}, {"smiles": "Nc1nc([O-])c2c(n1)n([C@@H]1O[C@H](COP(=O)(O)O)[C@@H](O)[C@H]1O)c[n+]2CC(=O)OCc1ccccc1", "values": [{"measurement": "AC50", "value": "> 100", "unit": "µM"}]}]}
